The entries are a selection whose mix differs from that of the whole data set. Calls of active or inactive are those of the source.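 How the source made its calls: active means 10 µM primary screen giving 50% or more activity, confirmed by 40% or more on retest at that dose; inactive means the rest.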

The chains behind the UniProt entries cited, without tags or fusion partners.
UniProt P05107, whole entry, looked up: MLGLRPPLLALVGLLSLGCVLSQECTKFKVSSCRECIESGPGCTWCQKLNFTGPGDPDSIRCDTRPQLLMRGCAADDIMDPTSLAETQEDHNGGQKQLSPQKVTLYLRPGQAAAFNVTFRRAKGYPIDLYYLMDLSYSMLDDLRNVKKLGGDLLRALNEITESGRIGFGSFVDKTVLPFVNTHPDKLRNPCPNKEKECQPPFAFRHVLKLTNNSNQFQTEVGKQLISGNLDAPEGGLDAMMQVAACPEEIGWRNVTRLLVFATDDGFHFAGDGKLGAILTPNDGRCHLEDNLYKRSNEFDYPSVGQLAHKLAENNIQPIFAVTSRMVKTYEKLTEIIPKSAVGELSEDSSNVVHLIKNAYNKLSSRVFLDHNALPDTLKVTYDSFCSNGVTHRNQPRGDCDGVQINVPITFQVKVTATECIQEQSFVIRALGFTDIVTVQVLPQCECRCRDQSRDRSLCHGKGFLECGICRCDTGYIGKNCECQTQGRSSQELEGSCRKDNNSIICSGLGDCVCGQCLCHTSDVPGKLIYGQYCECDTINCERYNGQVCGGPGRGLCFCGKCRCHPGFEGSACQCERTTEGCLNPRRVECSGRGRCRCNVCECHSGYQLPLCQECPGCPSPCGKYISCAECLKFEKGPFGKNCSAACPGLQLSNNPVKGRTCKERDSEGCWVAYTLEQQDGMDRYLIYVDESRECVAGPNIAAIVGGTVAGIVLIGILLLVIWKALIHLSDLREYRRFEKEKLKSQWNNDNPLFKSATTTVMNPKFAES

The target of this test is Integrin beta-2 (Homo sapiens) + Integrin alpha-M (Homo sapiens) (UniProt P05107+P11215). Briefly: agonists of integrin CD11b/CD18-fibrinogen binding – K562 cells, luminescence, primary screen (AID 1499). The note with it: K562 CD11b/CD18 adhesion to fibrinogen, ATPlite luminescence; at 10 µM; hits give high values.
Consider `Cc1nc2ccc3ccccc3c2s1.O=[N+]([O-])c1cc([N+](=O)[O-])c(O)c([N+](=O)[O-])c1`, for which the activation was inactive: -1%.

With `Cc1cc(C)cc(OP(C)(=O)Nc2ccc(C)cc2C)c1` (stereo not given), the activation was inactive: 3.1%.

For `Cc1cc(C)cc(OP(C)(=O)Nc2ccccn2)c1` (stereo not given), the activation was inactive: -1.5%.

As to `Cc1ccc(C)c(NP(C)(=O)Oc2ccccc2)c1` (stereo not given), the activation is inactive: 0.1%.

Consider `Cc1ccc(NP(C)(=O)Oc2ccccc2)c(C)c1` (stereo not given), for which the activation is inactive: -6.5%.

For the compound `COc1ccccc1OP(C)(=O)Nc1ccc(C)cc1` (stereo not given), the activation is inactive: -2.6%.

Turning to `COc1ccc(OP(C)(=O)Nc2cccc(F)c2)cc1` (stereo not given), the activation was inactive: 1.5%.

As for `CP(=S)(Nn1cnnc1)Oc1ccccc1` (stereo not given), the activation is inactive: 1.9%.

As to `Cc1cccc(C)c1OP(C)(=O)Nc1ccc(SC(F)(F)F)cc1` (stereo not given), the activation is inactive: -5.8%.

For `Cc1cc(C)cc(OP(C)(=O)Nc2ccc(SC(F)(F)F)cc2)c1` (stereo not given), the activation was inactive: 0.7%.

In the case of `CP(=O)(NC(=O)Nc1ccccc1)Oc1ccccc1` (stereo not given), the activation was inactive: -1.1%.

For the compound `CCOP(C)(=S)SCC(=O)NC(C)C(=O)O` (stereo not given), the activation is inactive: -4.1%.

On to `CCOC(=O)c1ccc(NP(C)(=O)Oc2ccc(OC)cc2)cc1` (stereo not given), for which the activation is inactive: 3.1%.

Regarding `CP(=O)(Nc1ccccn1)Oc1ccc(Cl)cc1` (stereo not given), the activation is inactive: -2%.

For the compound `CCN(CC)CC(O)COC(=O)C(O)(c1ccccc1)C1CCCCC1` (stereo not given), the activation was inactive: -0.7%.

For the compound `CP(=O)(Oc1ccccc1)N1CCOC1=O` (stereo not given), the activation is inactive: 0%.

Turning to `COc1ccccc1OP(C)(=O)Nc1c(C)n(C)n(-c2ccccc2)c1=O` (stereo not given), the activation was inactive: 0%.

Turning to `CC(C)(C)c1ccc(OP(C)(=O)O)cc1`, the activation is inactive: -3.5%.

Take `CP(=O)(OC12CC3CC(CC(C3)C1)C2)OC12CC3CC(CC(C3)C1)C2`: the activation is inactive: -4.3%.

Consider `COc1ccc(OP(C)(=O)Nc2ccccc2Br)cc1` (stereo not given), for which the activation was inactive: 0%.

As to `COc1ccccc1OP(C)(=O)Nc1ccc(C)c(C)c1` (stereo not given), the activation was inactive: -4.2%.

As for `Cc1nc2ccc3ccccc3c2o1.O=[N+]([O-])c1cc([N+](=O)[O-])c(O)c([N+](=O)[O-])c1`, the activation is inactive: 0.2%.

As for `CN(C)CCOC(=O)C(O)(c1ccccc1)C1CCCC1` (stereo not given), the activation was inactive: -1.3%.

As to `COc1ccc(OP(C)(=O)Nc2ccccn2)cc1` (stereo not given), the activation was inactive: 3.7%.

With `CP(=O)(Nc1ccccn1)Oc1ccccc1` (stereo not given), the activation was inactive: 2.2%.

`CP(=O)(Nc1ccccc1F)Oc1ccccc1` (stereo not given): the activation is inactive: 2.1%.

As to `COc1ccc(OP(C)(=O)Nc2cccc(Br)c2)cc1` (stereo not given), the activation was inactive: -6.8%.

Turning to `CN(C)CCOC(=O)C(O)(c1ccccc1)C1CCCCC1` (stereo not given), the activation is inactive: -2.1%.

For `CCOP(C)(=S)SCC(=O)NC(C)(CC)C(=O)O` (stereo not given), the activation is inactive: -1.3%.

As to `Cc1ccccc1NP(C)(=O)Nc1ccccc1C`, the activation is inactive: 0.3%.

The values above are taken from PubChem BioAssay AID1499 (Sanford-Burnham Center for Chemical Genomics, 2009).
